## Parent scFvs against a spike HR2 peptide, AlphaSeq assay B

Source: Li et al. 2023 (doi:10.1038/s41467-023-39022-2), MIT Lincoln Laboratory and A-Alpha Bio; data file from the FLAb repository.

Antigen: PDVDLGDISGINAS, a 14-residue peptide of the SARS-CoV-2 spike HR2 region.

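Ab-14 (VH, linker, VL) is the parent of the designed variants that this assay measured; its own sequence was in the pool as ten entries. The scFvs were displayed on barcoded MATa yeast, the peptide on MATalpha yeast. Mating (16 h, 30 °C) was followed by selection of diploids and sequencing of their barcodes. Scores were corrected for input abundance and mapped to Kd with protein pairs of known affinity run in the same pool. The assay was run in six technical replicates.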

Affinities are written as log10 Kd with Kd in nM; a lower number is a better binder. An entry "n.d." has no value in the source: the pair was not observed among the diploids in that replicate. This suggests poor binding but is not conclusive. Entries in the file, in the order shown: 14H_Ctrl_10, 14H_Ctrl_7678, 14H_Ctrl_7698, 14H_Ctrl_7718, 14H_Ctrl_7738, 14L_Ctrl_04, 14L_Ctrl_8181, 14L_Ctrl_8201, 14L_Ctrl_8221, 14L_Ctrl_8241. Empty control strains, which show no peptide, gave a signal in 3% of pairings with all scFvs of this assay; the median was 2.55 and 95% of these signals were weaker than 1.37. No background was subtracted. Also given: how often the same scFv was detected with the empty control strains. Some sequences occur more than once in the pool; their replicates are listed entry by entry, parted by semicolons. Values of this round are not directly comparable with the first-round values of the same sequences. In the paper, a design with two or fewer of six values counts as a poor binder.

| # | antibody | scFv | log10 Kd (nM) by replicate | empty controls |
|---|---|---|---|---|
| 1 | Ab-14 | EVQLVETGGGLVQPGGSLRLSCAASGFTLNSYGISWVRQAPGKGPEWVSVIYSDGRRTFYGDSVKGRFTISRDTSTNTVYLQMNSLRVEDTAVYYCAKGRAAGTFDSWGQGTLVTVSSGGGGSGGGGSGGGGSDVVMTQSPESLAVSLGERATISCKSSQSVLYESRNKNSVAWYQQKAGQPPKLLIYWASTRESGVPDRFSGSGSGTDFTLTISSLQAEDAAVYYCQQYHRLPLSFGGGTKVEIK | n.d. n.d. n.d. n.d. n.d. 1.88; 1.96 1.87 2.86 1.59 2.04 1.45; n.d. n.d. n.d. n.d. n.d. n.d.; 0.43 0.57 n.d. n.d. 0.05 0.34; n.d. n.d. n.d. n.d. n.d. n.d.; n.d. n.d. n.d. 0.75 n.d. n.d.; 1.51 2.16 0.98 2.30 1.91 1.55; n.d. n.d. n.d. n.d. n.d. n.d.; 2.68 n.d. n.d. 2.15 1.64 3.02; n.d. n.d. n.d. n.d. n.d. 1.64 | 0 of 180 |